Assay results taken from PMC3683333, “^11C-LY2428703, a positron emission tomographic radioligand for the metabotropic glutamate receptor 1, is unsuitable for imaging in monkey and human brains” (EJNMMI Research, 2013).

Sequences of proteins named here, by UniProt entry; tags and fusion partners are left off. Residues count along the entry.
UniProt P23385, 19-1199 limits assumed: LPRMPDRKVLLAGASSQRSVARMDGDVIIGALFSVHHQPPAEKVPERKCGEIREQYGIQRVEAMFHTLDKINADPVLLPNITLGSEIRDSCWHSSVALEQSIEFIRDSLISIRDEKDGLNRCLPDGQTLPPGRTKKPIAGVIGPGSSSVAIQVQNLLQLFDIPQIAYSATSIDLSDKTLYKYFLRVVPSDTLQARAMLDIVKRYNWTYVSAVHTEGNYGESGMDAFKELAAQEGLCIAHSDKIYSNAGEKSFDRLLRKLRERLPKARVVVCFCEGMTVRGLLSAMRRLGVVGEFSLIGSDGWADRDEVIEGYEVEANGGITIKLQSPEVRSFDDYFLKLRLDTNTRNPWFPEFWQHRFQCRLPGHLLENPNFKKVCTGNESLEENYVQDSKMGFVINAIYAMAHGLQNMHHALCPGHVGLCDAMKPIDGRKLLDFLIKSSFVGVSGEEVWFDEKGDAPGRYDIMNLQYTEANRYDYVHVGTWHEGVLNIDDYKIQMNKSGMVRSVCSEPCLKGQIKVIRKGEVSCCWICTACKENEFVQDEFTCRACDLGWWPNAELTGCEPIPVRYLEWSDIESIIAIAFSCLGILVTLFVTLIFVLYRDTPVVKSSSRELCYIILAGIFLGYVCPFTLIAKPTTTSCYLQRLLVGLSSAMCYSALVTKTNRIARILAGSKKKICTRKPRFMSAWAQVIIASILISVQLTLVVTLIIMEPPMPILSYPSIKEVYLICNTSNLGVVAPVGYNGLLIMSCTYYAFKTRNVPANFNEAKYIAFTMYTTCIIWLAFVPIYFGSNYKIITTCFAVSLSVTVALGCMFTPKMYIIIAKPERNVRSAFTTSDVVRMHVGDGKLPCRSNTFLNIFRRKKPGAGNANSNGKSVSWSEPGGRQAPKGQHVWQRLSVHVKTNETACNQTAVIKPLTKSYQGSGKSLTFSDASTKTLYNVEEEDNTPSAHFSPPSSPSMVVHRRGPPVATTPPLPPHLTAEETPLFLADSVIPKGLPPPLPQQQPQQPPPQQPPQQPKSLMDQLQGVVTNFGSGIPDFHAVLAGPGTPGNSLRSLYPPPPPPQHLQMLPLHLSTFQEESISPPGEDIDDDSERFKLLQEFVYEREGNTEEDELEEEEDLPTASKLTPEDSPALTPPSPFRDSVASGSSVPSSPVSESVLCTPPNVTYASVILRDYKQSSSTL
UniProt I2CU04, 19-1195 limits assumed: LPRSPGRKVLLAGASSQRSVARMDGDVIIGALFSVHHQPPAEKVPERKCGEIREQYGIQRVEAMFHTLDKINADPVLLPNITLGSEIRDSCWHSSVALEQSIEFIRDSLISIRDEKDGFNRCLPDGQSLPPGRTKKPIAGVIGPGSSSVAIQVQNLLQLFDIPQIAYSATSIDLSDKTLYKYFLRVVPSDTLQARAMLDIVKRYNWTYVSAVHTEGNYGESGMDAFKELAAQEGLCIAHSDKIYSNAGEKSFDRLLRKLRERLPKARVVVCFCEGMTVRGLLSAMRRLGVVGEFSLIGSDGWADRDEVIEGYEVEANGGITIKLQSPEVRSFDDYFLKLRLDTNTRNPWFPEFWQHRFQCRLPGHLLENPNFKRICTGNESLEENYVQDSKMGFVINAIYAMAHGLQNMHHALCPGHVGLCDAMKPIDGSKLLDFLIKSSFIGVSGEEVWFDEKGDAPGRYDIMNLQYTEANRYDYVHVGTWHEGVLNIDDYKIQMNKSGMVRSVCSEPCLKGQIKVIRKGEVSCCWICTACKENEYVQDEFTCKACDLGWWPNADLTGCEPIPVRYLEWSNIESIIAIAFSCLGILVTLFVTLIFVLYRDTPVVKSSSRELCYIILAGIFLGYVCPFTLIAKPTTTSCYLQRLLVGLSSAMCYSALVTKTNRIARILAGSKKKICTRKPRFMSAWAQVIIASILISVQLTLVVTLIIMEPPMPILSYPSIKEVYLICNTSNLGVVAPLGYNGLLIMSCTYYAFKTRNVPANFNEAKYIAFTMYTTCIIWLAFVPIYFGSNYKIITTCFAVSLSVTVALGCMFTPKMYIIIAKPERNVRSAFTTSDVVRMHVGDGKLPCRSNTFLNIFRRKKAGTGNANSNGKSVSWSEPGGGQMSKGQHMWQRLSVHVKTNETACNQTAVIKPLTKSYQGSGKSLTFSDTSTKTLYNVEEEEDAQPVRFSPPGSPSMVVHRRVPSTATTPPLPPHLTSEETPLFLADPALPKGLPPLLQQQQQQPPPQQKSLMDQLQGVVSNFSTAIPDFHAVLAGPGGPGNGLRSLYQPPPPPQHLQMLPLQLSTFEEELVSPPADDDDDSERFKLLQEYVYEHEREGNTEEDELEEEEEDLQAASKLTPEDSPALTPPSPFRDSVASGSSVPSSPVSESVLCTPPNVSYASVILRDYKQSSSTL
UniProt Q13255, 19-1194 limits assumed: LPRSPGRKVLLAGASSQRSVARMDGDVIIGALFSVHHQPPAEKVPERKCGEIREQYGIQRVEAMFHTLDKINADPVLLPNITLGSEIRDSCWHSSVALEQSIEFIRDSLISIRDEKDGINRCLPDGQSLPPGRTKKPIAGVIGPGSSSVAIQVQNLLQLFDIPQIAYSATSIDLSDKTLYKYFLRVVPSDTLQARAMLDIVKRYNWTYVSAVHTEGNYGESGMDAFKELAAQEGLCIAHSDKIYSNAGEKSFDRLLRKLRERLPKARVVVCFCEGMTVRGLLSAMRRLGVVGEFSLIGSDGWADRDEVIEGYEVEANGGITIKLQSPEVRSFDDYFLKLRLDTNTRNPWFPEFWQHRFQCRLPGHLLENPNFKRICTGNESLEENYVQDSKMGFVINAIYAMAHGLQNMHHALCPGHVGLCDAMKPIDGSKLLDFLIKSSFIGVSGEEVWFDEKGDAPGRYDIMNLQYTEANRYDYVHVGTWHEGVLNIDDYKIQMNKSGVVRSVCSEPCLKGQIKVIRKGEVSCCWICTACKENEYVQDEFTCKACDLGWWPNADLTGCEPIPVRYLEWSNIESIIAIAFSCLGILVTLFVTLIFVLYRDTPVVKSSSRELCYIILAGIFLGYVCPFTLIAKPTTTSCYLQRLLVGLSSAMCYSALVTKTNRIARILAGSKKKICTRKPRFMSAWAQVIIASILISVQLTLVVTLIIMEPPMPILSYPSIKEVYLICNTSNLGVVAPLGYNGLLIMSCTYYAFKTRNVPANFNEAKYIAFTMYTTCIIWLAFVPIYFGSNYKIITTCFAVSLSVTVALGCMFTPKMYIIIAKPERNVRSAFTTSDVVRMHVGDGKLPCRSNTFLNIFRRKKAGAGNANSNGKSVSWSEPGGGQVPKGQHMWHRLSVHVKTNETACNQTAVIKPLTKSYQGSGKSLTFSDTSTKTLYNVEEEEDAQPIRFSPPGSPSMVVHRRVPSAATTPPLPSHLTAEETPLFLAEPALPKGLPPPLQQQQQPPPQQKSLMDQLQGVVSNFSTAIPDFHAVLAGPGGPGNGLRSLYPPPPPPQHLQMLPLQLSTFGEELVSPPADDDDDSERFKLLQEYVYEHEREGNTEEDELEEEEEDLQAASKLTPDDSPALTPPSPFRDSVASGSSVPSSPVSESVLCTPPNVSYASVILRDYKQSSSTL

Experiments:
[1] = molecular target: mGluR1 (Rattus norvegicus, UniProt P23385); test: Saturation binding assay with [^3H]LY456066, rat cerebellar membranes; conditions: rat cerebellar tissue; tested as the radiolabelled form
[2] = molecular target: mGluR1 (Macaca mulatta, UniProt I2CU04); test: Saturation binding assay with [^3H]LY456066, monkey cerebellar membranes; conditions: monkey cerebellar tissue; tested as the radiolabelled form
[3] = molecular target: mGluR1 (Homo sapiens, UniProt Q13255); test: Saturation binding assay with [^3H]LY456066, human cerebellar membranes; conditions: human cerebellar tissue; tested as the radiolabelled form

OCCSc1nc2c(c(NC3Cc4ccccc4C3)n1)CCCC2
Bmax [1]: 167 nM and 167 ± 24 (3) nM | Kd [1]: 6.6 nM | Bmax [2]: 120 nM and 120 ± 8.6 (3) nM | Kd [2]: 6.6 nM | Bmax [3]: 186 nM and 186 ± 11.6 (4) nM | Kd [3]: 11 nM

Where “and” joins values, the source holds several entries; their conditions need not be identical. Equal values may be shown once.
